For one compound, Ki results are on record in ChEMBL document CHEMBL1156846, “Remote functionalization of SCH 39166: discovery of potent and selective benzazepine dopamine D1 receptor antagonists” (Bioorg Med Chem Lett, 2010).

The chains behind the UniProt entries cited, without tags or fusion partners.
UniProt P14416, whole entry: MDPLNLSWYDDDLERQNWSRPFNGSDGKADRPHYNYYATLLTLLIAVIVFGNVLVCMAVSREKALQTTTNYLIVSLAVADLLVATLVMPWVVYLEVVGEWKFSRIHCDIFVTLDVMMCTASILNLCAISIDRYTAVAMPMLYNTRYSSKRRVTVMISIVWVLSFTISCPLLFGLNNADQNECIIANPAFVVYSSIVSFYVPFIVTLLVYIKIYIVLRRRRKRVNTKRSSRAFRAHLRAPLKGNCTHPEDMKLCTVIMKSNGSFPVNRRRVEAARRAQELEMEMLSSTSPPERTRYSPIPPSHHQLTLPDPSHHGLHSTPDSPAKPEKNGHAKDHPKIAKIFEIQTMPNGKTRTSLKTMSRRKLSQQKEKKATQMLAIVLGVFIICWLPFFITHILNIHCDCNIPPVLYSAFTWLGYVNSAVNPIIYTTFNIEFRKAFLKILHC

The test deals with D(2) dopamine receptor (Homo sapiens, UniProt P14416). The test is described as follows: Displacement of [3H]methylspiperon from dopamine D2 receptor expressed in mouse LTK cells by scintillation counting. It counts as cell-based. For orientation: Loss of bound radioactivity is the signal in a displacement assay; it reports binding, not function.

Broadly, the Ki is the equilibrium dissociation constant of an inhibitor or competing ligand from its target. A lower Ki goes with a stronger hold on the target. The compound `CN1CCc2cc(Cl)c(O)cc2[C@H]2c3ccccc3CC[C@@H]21` [ECOPIPAM] gave a Ki of 980 nM.
